Data taken from ChEMBL document CHEMBL1649369, “Novel 4-aryl-pyrido[1,2-c]pyrimidines with dual SSRI and 5-HT(1A) activity. part 3” (Eur J Med Chem, 2011).

What was measured:
Type in all cases: functional, organism-based
Set-up in all cases: dose 5 mg/kg
Mus musculus [1] = assay: Effect on hypothermia in Swiss albino mouse assessed as change in rectal body temperature at 5 mg/kg, ip after 30 mins by inducible hypothermia test
Mus musculus [2] = assay: Effect on hypothermia in Swiss albino mouse assessed as change in rectal body temperature at 5 mg/kg, ip after 60 mins by inducible hypothermia test
Mus musculus [3] = assay: Effect on hypothermia in Swiss albino mouse assessed as change in rectal body temperature at 5 mg/kg, ip after 90 mins by inducible hypothermia test
Mus musculus [4] = assay: Effect on hypothermia in Swiss albino mouse assessed as change in rectal body temperature at 5 mg/kg, ip after 120 mins by inducible hypothermia test

## CCCN(CCC)C1CCc2cccc(O)c2C1 (centres undefined)
Mus musculus [1]
  deltaT: -1.4 °C
Mus musculus [2]
  deltaT: -1.2 °C
Mus musculus [3]
  deltaT: -0.7 °C
Mus musculus [4]
  deltaT: -0.2 °C
